PTHR1 ag: activates the human parathyroid hormone receptor PTHR1; AID 743266; hit rate 0.075% among 410,000; HEK293 GP2 PTHR1 cells, GloSensor cAMP luminescence, 1 h; Q03431; Potency, µM (highest dose often 115 µM), for inactives: at the highest dose activation, actives largely listed as activators; further: potency means the concentration at half of the fitted maximal effect; nearly all actives have a fitted effect of over 55% in size
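HEK-293-derived GP2 cells expressing PTHR1 and a GloSensor cAMP reporter, 3,000/well, plated overnight, given luciferin plus IBMX (each 0.5 mM as added) for 1 h at 37 °C, then compound for 1 h at 37 °C. Luminescence was read after 15 min at room temperature.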
GLP1R cytotox: cytotoxicity counter-screen for GLP-1 receptor inverse agonists | HEK293 cAMP-luciferase reporter cells, luminescence, 24 h | Potency, µM (titrated, usually from 38.3 µM), inactives show at the highest dose activity change, negative = inhibition, actives largely listed as inhibitors | hit rate 0.13% among 410,000 | AID 624418;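 further: loss of luciferase light is scored as toxicity; potency means the concentration at half of the fitted maximal effect; on the % scale 0 is the no-effect control and ±100 the full control effect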
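1536-well qHTS counterscreen of the MLSMR; 200 cells/uL, 12 h pre-incubation, 23 nL cpd, 24 h at 37 deg C 5% CO2, luciferase detection reagent, 12 min RT, luminescence. Inhibition = undesired.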
Pin1 inhibitor: blocks the human prolyl isomerase Pin1; Q13526; Pin1 FP peptide displacement, HiFluor488, 10 min; Potency, µM (highest dose often 115 µM), for inactives: at the top dose activity, negative = inhibition, usual class: inhibitors; hit rate 0.009% among 390,000; active means well fitted inhibition curve with a large enough effect in the polarisation, with a control signal flat, not every such curve was filed as active; inconclusive means small, poorly fitted or top-dose-only effect, or effect the other way, or a change in a side signal; inactive means no such curve, though single readings can be large or run the other way; the % refers to the polarisation; further: potency means the concentration at half of the fitted maximal effect; on the % scale 0 is the no-effect control and ±100 the full control effect
GLP-1R agonist: activates the human GLP-1 receptor. P43220. HEK293 GLP-1R CRE-luciferase, luminescence, 4-6 h; cells express a hypersensitive GLP-1R form. Potency, µM (top dose mostly 45.6 µM), without a hit: top-dose activation, actives largely listed as activators. hit rate 0.007% among 380,000. AID 624172; further: potency means the concentration at half of the fitted maximal effect; % of control where 0% means no effect
miR-21 reporter: raises the signal of a miR-21 reporter | HeLa miR-21 FLuc reporter, luciferase, 48 h | Potency, µM (highest dose often 38.3 µM), inactives show at the highest dose reporter change, positive = more light | 340,000 tested, under 10 active | AID 2288; active = well fitted rising curve with a large enough effect; inconclusive = small, poorly fitted or top-dose-only effect; inactive = no such curve, though single readings can be large or run the other way;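 note: % of control where 0% means no effect; miR-21 action dims this reporter so a rising signal means less miR-21 action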
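HeLa cells stably expressing CMV-driven firefly luciferase with a downstream miR-21 binding sequence, endogenously expressing miR-21, were treated with titrations (up to about 40uM final) for 48 hours at 37 degree Celsius. Luciferase luminescence was read after lysis.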
GLP1R inv ag: inverse agonists of human GLP-1 receptor | P43220 | HEK293 GLP-1R CRE-luciferase, luminescence, 24 h; GLP-1R form is constitutively active | Potency, µM (series often up to 38.3 µM), without a hit: at the top dose activity change, negative = inhibition, most hits filed as inhibitors | hit rate 1.6% among 410,000; further: potency means the concentration at half of the fitted maximal effect; on the % scale 0 is the no-effect control and ±100 the full control effect; nearly all actives have a fitted effect of over 55% in size
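Seeding at 200 cells/uL, 12 h culture, 24 hr compound treatment, then luciferase reagent and a luminescence read; cells are HEK293 stably expressing a constitutively active GLP-1R plus cAMP-responsive luciferase.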
* hit, by the source's call; i = inactive; ? = inconclusive; nt = no result; ! = a repeat was not active; [ ] = another dose, or the depositor's remark. Compounds with a hit are over-represented: about 1.7% of the library has one in this group of screens. Unless noted, the call rests on the fitted dose curve; in most records, active means well fitted curve in the direction sought with a large enough effect; inconclusive means small, poorly fitted or top-dose-only effect, or another doubt; inactive means no such curve, though single readings can be large; an effect the other way counts as inactive or inconclusive.

(1) Cc1ccc(C(=O)N(c2ccccc2)C2CC(C)N(C(=O)c3ccco3)c3ccccc32)cc1 (stereo not given)
(2) CCCN1C(=O)c2ccccc2NC1c1ccc(OC)c(COc2ccc([N+](=O)[O-])cc2)c1 (stereo not given)
(3) COc1ccccc1N1CCN(C2CCCCC2NS(=O)(=O)c2ccccc2)CC1 (stereo not given)
(4) CN(CC(=O)Nc1cccc(F)c1)C(=O)c1cc2c(s1)CCCCC2
(5) CN(CC(=O)Nc1ccc(F)cc1)C(=O)c1cc2c(s1)CCCCC2
(6) CC(C)(C)c1ccc(C(=O)N2CCC(=O)N([C@H](COCc3ccccc3)Cc3ccccc3)CC2)cc1
screen / no.	1	2	3	4	5	6
GLP-1R agonist	-1%	nt	-5%	13%	19%	-4%
Pin1 inhibitor	-1%	0%	-5%	-9%	-4%	nt
miR-21 reporter	18%	nt	10%	nt	nt	nt
GLP1R cytotox	-9%	nt	0%	-8%	-16%	?
PTHR1 ag	-12%[57.5 µM]	nt	i	-48%	-18%	i
GLP1R inv ag	10µM*	nt	10µM*	?	10µM*	10µM*

(7) O=C(c1ccc(Cl)c(Cl)c1)N1CCC(=O)N(C(COCc2ccc(Cl)cc2)Cc2ccccc2)CC1 (stereo not given)
(8) CC(CN(C)C)CN1c2ccccc2S(=O)(=O)c2ccccc21 (stereo not given)
(9) CCN1C(=O)c2ccccc2Sc2ccc(C(=O)NCCCN3CCCCC3)cc21
(10) Cc1[nH]c2ccc(C(=O)NCCCN3CCCCC3)cc2c1C
(11) NS(=O)(=O)c1ccc(S(=O)(=O)N2CCN(c3nc(-c4cccs4)nc4ccccc34)CC2)cc1
(12) CCN(CC)CCN(C(=O)c1ccc2c(c1)OCCO2)c1nc2cc(C)cc(C)c2s1
screen / no.	7	8	9	10	11	12
GLP-1R agonist	0%	4%	-4%	-5%	nt	-4%
Pin1 inhibitor	6%	nt	2%	0%	47%	-2%
miR-21 reporter	2%	nt	8%	-7%	nt	0%
GLP1R cytotox	16%	nt	-24%	3%	nt	15%
PTHR1 ag	-4%	nt	i	18µM*!	nt	-27%
GLP1R inv ag	10µM*	nt	13µM*	22%	nt	11µM*

(13) COCCN=c1scc(-c2ccccc2)n1/N=C/c1c[nH]c2ccccc12
(14) C(=NN=Cc1c[nH]c2ccccc12)c1c[nH]c2ccccc12
(15) COC(=O)CN1CC(=O)c2ccccc2S1(=O)=O
(16) CCc1ccccc1-n1nnnc1SCC(=O)Nc1ccc(N2CCN(C)CC2)cc1
(17) Cc1cccc(-n2nnnc2SCC(=O)Nc2ccc(N3CCN(C)CC3)cc2)c1
(18) Cc1ccccc1-n1nnnc1SCC(=O)Nc1ccc(N2CCN(C)CC2)cc1
screen / no.	13	14	15	16	17	18
GLP-1R agonist	14%	3%	nt	7%	3%	-5%
Pin1 inhibitor	?	nt	-6%	-1%	0%	-1%
miR-21 reporter	-25%	nt	nt	3%	6%	2%
GLP1R cytotox	-9%	-3%	nt	-8%	-18%	-19%
PTHR1 ag	-55%	-16%	nt	i	-9%	-30%
GLP1R inv ag	4µM*	-5%	nt	1.8µM*	?	1µM*

Retrieved one by one from the entries so far (three):
(13) COCCN=c1scc(-c2ccccc2)n1/N=C/c1c[nH]c2ccccc12
(4) CN(CC(=O)Nc1cccc(F)c1)C(=O)c1cc2c(s1)CCCCC2
(10) Cc1[nH]c2ccc(C(=O)NCCCN3CCCCC3)cc2c1C
screen / no.	13	4	10
GLP-1R agonist	14%	13%	-5%
Pin1 inhibitor	?	-9%	0%
miR-21 reporter	-25%	nt	-7%
GLP1R cytotox	-9%	-8%	3%
PTHR1 ag	-55%	-48%	18µM*!
GLP1R inv ag	4µM*	?	22%

Following part
(19) Cc1ccccc1-n1nnnc1SC(C)C(=O)Nc1ccc(N2CCN(C)CC2)cc1 (stereo not given)
(20) OCC1(Cc2ccccc2Cl)CCN(C/C=C/c2ccccc2)CC1
(21) S=C1NCCc2ccccc2C1c1ccccc1Cl (stereo not given)
(22) S=C1NCCc2ccccc2C1c1ccccc1 (stereo not given)
(23) O=C(/C=C/c1ccc(OCc2cccc(Cl)c2)cc1)N1CCOCC1
(24) O=C(NCc1nnc(-c2nc3ccccc3[nH]2)o1)C1CCCCC1
(25) CC1(C)CC(NS(=O)(=O)c2ccc(C(C)(C)C)cc2)CC(C)(C)N1
(26) CC1(C)CC(NS(=O)(=O)c2ccc(F)cc2)CC(C)(C)N1
screen / no.	19	20	21	22	23	24	25	26
GLP-1R agonist	-1%	6%	-6%	1%	3%	nt	3%	1%
Pin1 inhibitor	4%	1%	-2%	-4%	0%	-3%	-8%	9%
miR-21 reporter	2%	-1%	0%	2%	-5%	nt	-6%	-5%
GLP1R cytotox	-26%	-22%	?	?	-12%	nt	-14%	5%
PTHR1 ag	i	i	i	-4%	-21%	nt	-5%	-13%
GLP1R inv ag	?	10µM*	?	11µM*	6.3µM*	nt	3.5µM*	-9%

Screens from PubChem.
